Measurements: patent US20110076693A1 (US Dept. of Health and Human Services, published 2011)

Target: T1, Polo-Like Kinase 1 (Plk1), endogenous, from HeLa lysates (H. sapiens)
T1 construct: also called endogenous Plk1
Experiment: pulldown from mitotic HeLa lysates with bead-bound GST, anti-Plk1 immunoblot

B1: control glutathione S-transferase (GST) (other, UniProt P08515 1-218, looked up)
chain: MSPILGYWKIKGLVQPTRLLLEYLEEKYEEHLYERDEGDKWRNKKFELGLEFPNLPYYIDGDVKLTQSMAIIRYIADKHNMLGGCPKERAEISMLEGAVLDIRYGVSRIAYSKDFETLKVDFLSKLPEMLKMFEDRLCHKTYLNGDHVTHPDFMLYDALDVVLYMDPMCLDAFPKLVCFKKRIEAIPQIDKYLKSSKYIAWPLQGWQATFGGGDHPPK
notes: Negative control of the pulldowns; also called control GST
binding result: no binding
